The numbers were not newly measured in patent US20050202505A1, “Method to identify modulators for human 3alpha-hydroxysteroid dehydrogenase” (priority 2001, published 2005), which cites them from elsewhere.

For the data set, the target named is GABAA receptor. To be noted: allosteric effector of the GABAA receptor; cited from earlier work.

In general, Kd refers to a measure of binding affinity in units of concentration. Take `CC(=O)[C@H]1CC[C@H]2[C@@H]3CC[C@H]4C[C@H](O)CC[C@]4(C)[C@H]3CC[C@]12C` [allopregnanolone, 3α-hydroxy-5a-pregnan-20-one]: the Kd was 1 nM.
